# Data: patent US11426393B2, “Prolyl hydroxylase inhibitors and methods of use” (Akebia Therapeutics, Inc., priority 2006, dated 2022)
# System: VEGF
# Test: VEGF ELISA assay
# Type: cell-based
# Settings: Homo sapiens, HEK293, read-out: VEGF EC50 μM
# Description: HEK293 cells are seeded in 96-well poly-lysine coated plates at 20,000 ceils per well in DMEM (10% FBS, 1% NEAA, 0.1% glutamine). Following overnight incubation, the cells are washed with 100 uL of Opti-MEM (Gibco, Carlsbad, Calif.) to remove serum. Compound in DMSO is serially diluted (beginning with 100 μM) in Qpti-MEM and added to the cells. The conditioned media is analyzed for VEGF with a Quantikine human VEGF immunoassay kit (R&D Systems, Minneapolis, Minn.). Optical density measurements at 450 nm are recorded using the Spectra Max 250 (Molecular Devices, Sunnyvale, Calif.). Data defined as % of DFO stimulation is used to calculate EC50 values with GraphPad Prism 4 software (San Diego, Calif.).
smiles,measurement,value
O=C(O)CNC(=O)c1ncc(-c2ccc(F)cc2)cc1O,EC50,> 100 µM
